Assay results taken from US8987249B2, “Substituted 2-Aza-bicyclo[2.2.1]heptane-3-carboxylic acid (benzyl-cyano-methyl)-amides inhibitors of Cathepsin C” (Boehringer Ingelheim International GmbH, priority 2013, dated 2015).

Chains of the proteins cited; added tags and fusions are not shown. Residues count along the entry.
UniProt P53634, 25-134 limits assumed: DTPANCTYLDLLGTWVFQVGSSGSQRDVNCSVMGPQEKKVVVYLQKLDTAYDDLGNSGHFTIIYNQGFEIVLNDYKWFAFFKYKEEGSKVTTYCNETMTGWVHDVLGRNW
UniProt P53634, 231-394 limits assumed: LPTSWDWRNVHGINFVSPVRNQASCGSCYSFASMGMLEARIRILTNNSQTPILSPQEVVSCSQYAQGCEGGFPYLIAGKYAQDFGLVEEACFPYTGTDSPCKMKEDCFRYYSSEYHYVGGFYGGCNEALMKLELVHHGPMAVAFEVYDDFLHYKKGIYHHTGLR
UniProt P53634, 395-463 limits assumed: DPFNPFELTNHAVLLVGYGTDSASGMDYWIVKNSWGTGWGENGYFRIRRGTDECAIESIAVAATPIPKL
UniProt P43235, 115-329 limits assumed: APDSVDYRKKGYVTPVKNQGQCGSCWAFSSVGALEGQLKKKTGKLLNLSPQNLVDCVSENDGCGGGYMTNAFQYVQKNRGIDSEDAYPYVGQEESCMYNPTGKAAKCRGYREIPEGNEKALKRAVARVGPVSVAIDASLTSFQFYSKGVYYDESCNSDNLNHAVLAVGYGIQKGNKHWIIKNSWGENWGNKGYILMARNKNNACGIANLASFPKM

Assays:
[1] = biological target: recombinant human DPPI (Cathepsin C) (Homo sapiens (Human), UniProt P53634); test: Inhibition of human DPPI (Cathepsin C); format: biochemical; conditions: read-out: Inhibition of DPPI IC50, substrate Gly-Arg-AMC
[2] = tested on: neutrophil elastase activity in U937 cells; test: Determination of neutrophil elastase activity in U937 cytosolic lysate preparation after incubation with test compound; conditions: read-out: Reduction of NE-activity in U937 cells IC50
[3] = biological target: recombinant human Cathepsin K (Homo sapiens (Human), UniProt P43235); test: Inhibition of human Cathepsin K; conditions: read-out: Inhibition of Cathepsin K IC50, substrate Z-Gly-Pro-Arg-AMC
[4] = Determination of metabolic stability with human liver microsomes; conditions: pooled human liver microsomes, 1 μM test compound, 37° C., NADPH

Compound: N#Cc1ccc(-c2ccc(C[C@@H](C#N)NC(=O)[C@@H]3CCCCN3)cc2)cc1F
- IC50 [1]: 44.1 nM
- IC50 [2]: 107 nM
- IC50 [3]: 400 nM
- In vitro stability in human liver microsome incubations t½ [4]: 2 h
